Biological target: human BTK (Homo sapiens (Human), UniProt Q06187)
Test: BTK inhibition: BTK-mediated phosphorylation of FAM-labeled substrate 5-FAM-EEPLYWSFPAKKK-NH2 (Caliper LC-3000)
Format: biochemical
Conditions: residues 382 to 659 of human BTK; 60 minutes at room temperature; pIC50 = -log(IC50), IC50 molar
Text: The activity of compounds as BTK inhibitors may be determined by a variety of methods, including in vitro and in vivo methods.
This construct engineers an in-frame translational fusion with the Glutathione-S-Transferase (GST) protein for use in affinity purification. The fusion protein derived from this construct contains a protease recognition sequence to liberate the BTK from the GST affinity tag. High-titer baculoviral stocks, generated using the Bac-to-Bac® system (Invitrogen), are used to express the recombinant protein in Spodoptera frugiperda Sf9 cells in 10 L Wave bags. Recombinant proteins are isolated from cellular extracts by passage over Glutathione Sepharose 4B (GE Healthcare) and the BTK moiety is released from the GST affinity tag by treatment with PreScission protease. […] The purity of the fractions is assessed by SDS PAGE and the peak protein fractions are pooled and concentrated using Amicon Ultra-15 Centrifugal Filter Devices (Millipore).
The inhibitory properties of compounds relative to BTK is determined using a black 384-well-plate format in a buffer which contains 50 mM Hepes, 10 mM NaCl, 10 mM MgCl2, 0.2 mM EDTA, 0.01% Brij35®, 1 mM DTT, and 0.1 mg/mL BSA at pH 7.3. […] To quantify the fluorescent-labeled substrate and product following reaction, the test plate is loaded on a Caliper LC-3000, which measures percent of conversion by microfluidic-based separation. […]

By UniProt entry, the sequences of proteins in these tests, tags left out. Residues count along the entry.
UniProt Q06187, 382-659: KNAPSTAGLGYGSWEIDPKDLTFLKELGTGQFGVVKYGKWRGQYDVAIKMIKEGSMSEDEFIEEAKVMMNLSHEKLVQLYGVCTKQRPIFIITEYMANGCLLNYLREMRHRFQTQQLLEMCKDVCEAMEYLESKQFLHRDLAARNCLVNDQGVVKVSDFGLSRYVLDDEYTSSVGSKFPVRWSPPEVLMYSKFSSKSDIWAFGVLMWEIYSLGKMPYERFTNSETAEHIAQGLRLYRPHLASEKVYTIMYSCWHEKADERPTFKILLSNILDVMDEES

CN(C)C/C=C/C(=O)N1CC[C@H](Oc2nc(-c3n[nH]c(=O)[nH]3)cc3ccccc23)C1 [Example 14, (S,E)-5-(1-((1-(4-(dimethylamino)but-2-enoyl)pyrrolidin-3-yl)oxy)isoquinolin-3-yl)-2,4-dihydro-3H-1,2,4-triazol-3-one]
BTK Inhibition (pIC50): 8.2

Reference: patent US9801872B2, “Pyridinyl and fused pyridinyl triazolone derivatives” (Takeda Pharmaceutical Company Limited, priority 2013, dated 2017)
